Among the data in patent US8791267B2, “Biaryl PDE4 inhibitors for treating inflammatory, cardiovascular and CNS disorders” (Decode Genetics EHF, priority 2007, dated 2014) are IC50 values, retold here.

By UniProt entry, the sequences of proteins in these tests, tags left out. Where a name states a change or a piece, a line headed by the entry shows the natural chain unless it says otherwise.
UniProt Q08499: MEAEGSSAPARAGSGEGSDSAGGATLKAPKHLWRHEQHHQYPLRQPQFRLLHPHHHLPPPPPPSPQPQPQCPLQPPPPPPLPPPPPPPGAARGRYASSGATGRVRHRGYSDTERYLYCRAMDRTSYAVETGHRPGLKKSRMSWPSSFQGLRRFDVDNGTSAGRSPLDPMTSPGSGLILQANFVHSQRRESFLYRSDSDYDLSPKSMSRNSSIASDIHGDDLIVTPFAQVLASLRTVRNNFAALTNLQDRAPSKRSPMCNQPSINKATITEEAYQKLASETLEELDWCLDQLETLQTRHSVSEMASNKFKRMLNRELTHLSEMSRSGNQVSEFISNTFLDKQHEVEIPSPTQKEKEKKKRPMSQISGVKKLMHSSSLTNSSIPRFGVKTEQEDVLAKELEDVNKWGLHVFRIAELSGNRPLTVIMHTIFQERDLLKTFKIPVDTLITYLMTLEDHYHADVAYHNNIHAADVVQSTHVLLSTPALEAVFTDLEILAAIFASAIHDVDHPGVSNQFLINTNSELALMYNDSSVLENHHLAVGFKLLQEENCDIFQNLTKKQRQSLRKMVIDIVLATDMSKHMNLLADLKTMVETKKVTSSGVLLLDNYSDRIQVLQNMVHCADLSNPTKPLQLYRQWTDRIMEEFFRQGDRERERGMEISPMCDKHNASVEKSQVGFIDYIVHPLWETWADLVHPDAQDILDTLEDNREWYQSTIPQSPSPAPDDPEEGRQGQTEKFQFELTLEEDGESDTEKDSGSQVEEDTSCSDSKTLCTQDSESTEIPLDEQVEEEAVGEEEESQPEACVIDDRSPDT

The experiment concerns the target PDE4 (Homo sapiens, UniProt Q08499). Nature of the experiment: In-vitro assay for PDE4 enzymes, real-time enzyme-coupled spectrophotometric assay (Table 9). The class given is biochemical. Conditions: read-out: hPDE4D.

Consider `COc1ccc(Cc2ccncc2)nc1-c1cccc([N+](=O)[O-])c1` [P-019, 3-methoxy-2-(3-nitro-phenyl)-6-pyridin-4-ylmethyl-pyridine], for which the IC50 was < 5 µM.
